ChEMBL document CHEMBL3286203, “Reactive oxygen species (ROS) inducible DNA cross-linking agents and their effect on cancer cells and normal lymphocytes” (J Med Chem, 2014)

Key:
[1] = Induction of apoptosis in human CLL cells at 10 uM after 24 hrs by Annexin/propidium iodide staining-based assay (reference value: 95%)
[2] = Induction of apoptosis in human CLL cells at 10 uM after 48 hrs by Annexin/propidium iodide staining-based assay (reference value: 91%)
HOP-62 = experiment: Cytotoxicity against human HOP62 cells after 48 hrs by SRB assay; assay type: functional
How it was run: (§1)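 GI50 was determined in the NCI Developmental Therapeutics Program in vitro 60-line cancer screen. Tumour lines were maintained in RPMI 1640 containing 5% FBS and 2 mM L-glutamine. Cells were inoculated at 5000–40 000 cells/well according to each line's doubling time before drug exposure.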

HOP-92 = experiment: Cytotoxicity against human HOP92 cells after 48 hrs by SRB assay; assay type: functional; how it was run: as §1
NCI-H226 = experiment: Cytotoxicity against human NCI-H226 cells after 48 hrs by SRB assay; assay type: functional
How it was run: (§2)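 GI50 from the NCI Developmental Therapeutics Program in vitro human tumor cell screen. Cell lines were maintained in RPMI 1640 with 5% fetal bovine serum and 2 mM L-glutamine. They were seeded at 5000–40 000 cells/well, depending on each line's doubling time, then exposed to drug for 48 h at 37 °C, 5% CO2.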

NCI-H23 = experiment: Cytotoxicity against human NCI-H23 cells after 48 hrs by SRB assay; assay type: functional; how it was run: as §2
NCI-H322M = experiment: Cytotoxicity against human NCI-H322M cells after 48 hrs by SRB assay; assay type: functional; how it was run: as §2
NCI-H460 = experiment: Cytotoxicity against human NCI-H460 cells after 48 hrs by SRB assay; assay type: functional; how it was run: as §2
NCI-H522 = experiment: Cytotoxicity against human NCI-H522 cells after 48 hrs by SRB assay; assay type: functional; how it was run: as §2
COLO 205 = experiment: Cytotoxicity against human COLO205 cells after 48 hrs by SRB assay; assay type: functional; how it was run: as §1
HCC 2998 = experiment: Cytotoxicity against human HCC2998 cells after 48 hrs by SRB assay; assay type: functional; how it was run: as §1
HCT-116 = experiment: Cytotoxicity against human HCT116 cells after 48 hrs by SRB assay; assay type: functional; how it was run: as §1
[3] = Cytotoxicity against human HCT15 cells after 48 hrs by SRB assay; assay type: functional, HCT-15; how it was run: as §1
HT-29 = experiment: Cytotoxicity against human HT-29 cells after 48 hrs by SRB assay; assay type: functional; how it was run: as §1
KM12 = experiment: Cytotoxicity against human KM12 cells after 48 hrs by SRB assay; assay type: functional; how it was run: as §1
SW-620 = experiment: Cytotoxicity against human SW620 cells after 48 hrs by SRB assay; assay type: functional
How it was run: (§3)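 GI50 from the NCI-60 DTP human tumour line screen. Lines grown in RPMI 1640 with 5% fetal bovine serum and 2 mM L-glutamine, plated at 5000–40 000 cells/well according to doubling time. Incubated 48 h at 37 °C, 5% CO2.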

SF-268 = experiment: Cytotoxicity against human SF268 cells after 48 hrs by SRB assay; assay type: functional; how it was run: as §2
SF-295 = experiment: Cytotoxicity against human SF295 cells after 48 hrs by SRB assay; assay type: functional; how it was run: as §2
SF-539 = experiment: Cytotoxicity against human SF539 cells after 48 hrs by SRB assay; assay type: functional; how it was run: as §2
SNB-19 = experiment: Cytotoxicity against human SNB19 cells after 48 hrs by SRB assay; assay type: functional; how it was run: as §3
SNB-75 = experiment: Cytotoxicity against human SNB75 cells after 48 hrs by SRB assay; assay type: functional; how it was run: as §3
U-251 = experiment: Cytotoxicity against human U251 cells after 48 hrs by SRB assay; assay type: functional; how it was run: as §3
LOX IMVI = experiment: Cytotoxicity against human LOXIMVI cells after 48 hrs by SRB assay; assay type: functional; how it was run: as §1
Malme-3M = experiment: Cytotoxicity against human MALME-3M cells after 48 hrs by SRB assay; assay type: functional; how it was run: as §1
M14 = experiment: Cytotoxicity against human M14 cells after 48 hrs by SRB assay; assay type: functional; how it was run: as §1
MDA-MB-435 = experiment: Cytotoxicity against human MDA-MB-435 cells after 48 hrs by SRB assay; assay type: functional; how it was run: as §2
SK-MEL-2 = experiment: Cytotoxicity against human SK-MEL-2 cells after 48 hrs by SRB assay; assay type: functional; how it was run: as §2
SK-MEL-28 = experiment: Cytotoxicity against human SK-MEL-28 cells after 48 hrs by SRB assay; assay type: functional; how it was run: as §2
SK-MEL-5 = experiment: Cytotoxicity against human SK-MEL-5 cells after 48 hrs by SRB assay; assay type: functional; how it was run: as §2
[4] = Cytotoxicity against human UACC257 cells after 48 hrs by SRB assay; assay type: functional, UACC-257; how it was run: as §3
[5] = Cytotoxicity against human UACC62 cells after 48 hrs by SRB assay; assay type: functional, UACC-62; how it was run: as §3
IGROV-1 = experiment: Cytotoxicity against human IGROV1 cells after 48 hrs by SRB assay; assay type: functional; how it was run: as §1
[6] = Cytotoxicity against human OVCAR3 cells after 48 hrs by SRB assay; assay type: functional, OVCAR-3; how it was run: as §2
[7] = Cytotoxicity against human OVCAR4 cells after 48 hrs by SRB assay; assay type: functional, OVCAR-4; how it was run: as §2
[8] = Cytotoxicity against human OVCAR5 cells after 48 hrs by SRB assay; assay type: functional, OVCAR-5; how it was run: as §2
[9] = Cytotoxicity against human OVCAR8 cells after 48 hrs by SRB assay; assay type: functional, OVCAR-8; how it was run: as §2
[10] = Cytotoxicity against human NCI-ADR-RES cells after 48 hrs by SRB assay; assay type: functional; how it was run: as §2
SK-OV-3 = experiment: Cytotoxicity against human SKOV3 cells after 48 hrs by SRB assay; assay type: functional; how it was run: as §2
786-0 = experiment: Cytotoxicity against human 786-0 cells after 48 hrs by SRB assay; assay type: functional; how it was run: as §1
A498 = experiment: Cytotoxicity against human A498 cells after 48 hrs by SRB assay; assay type: functional; how it was run: as §1
ACHN = experiment: Cytotoxicity against human ACHN cells after 48 hrs by SRB assay; assay type: functional; how it was run: as §1
CAKI-1 = experiment: Cytotoxicity against human Caki1 cells after 48 hrs by SRB assay; assay type: functional; how it was run: as §1
RXF 393 = experiment: Cytotoxicity against human RXF393 cells after 48 hrs by SRB assay; assay type: functional; how it was run: as §2
SN12C = experiment: Cytotoxicity against human SN12C cells after 48 hrs by SRB assay; assay type: functional; how it was run: as §2
TK-10 = experiment: Cytotoxicity against human TK10 cells after 48 hrs by SRB assay; assay type: functional; how it was run: as §3
[11] = Cytotoxicity against human UO31 cells after 48 hrs by SRB assay; assay type: functional, UO-31; how it was run: as §3
PC-3 = experiment: Cytotoxicity against human PC3 cells after 48 hrs by SRB assay; assay type: functional; how it was run: as §2
DU-145 = experiment: Cytotoxicity against human DU145 cells after 48 hrs by SRB assay; assay type: functional; how it was run: as §1
MCF7 = experiment: Cytotoxicity against human MCF7 cells after 48 hrs by SRB assay; assay type: functional; how it was run: as §1
MDA-MB-231 = experiment: Cytotoxicity against human MDA-MB-231 cells after 48 hrs by SRB assay; assay type: functional; how it was run: as §2
[12] = Cytotoxicity against human Hs578T cells after 48 hrs by SRB assay; assay type: functional, Hs-578T; how it was run: as §1
BT-549 = experiment: Cytotoxicity against human BT549 cells after 48 hrs by SRB assay; assay type: functional; how it was run: as §1
T47D = experiment: Cytotoxicity against human T47D cells after 48 hrs by SRB assay; assay type: functional; how it was run: as §3
MDA-MB-468 = experiment: Cytotoxicity against human MDA-MB-468 cells after 48 hrs by SRB assay; assay type: functional; how it was run: as §2
[13] = 1-Octanol-PBS partition coefficient, log P of the compound; assay type: physicochemical; conditions: octanol/water
[14] = Induction of apoptosis in human CLL cells after 24 hrs by Annexin/propidium iodide staining-based assay
[15] = Induction of apoptosis in human lymphocytes at 10 uM after 24 to 48 hrs by Annexin/propidium iodide staining-based assay; assay type: cell-based; conditions: lymphocyte
[16] = Induction of apoptosis in human lymphocytes after 24 hrs by Annexin/propidium iodide staining-based assay; conditions: lymphocyte
CCRF-CEM = experiment: Cytotoxicity against human CCRF-CEM cells after 48 hrs by SRB assay; assay type: functional; how it was run: as §1
HL-60(TB) = experiment: Cytotoxicity against human HL-60(TB) cells after 48 hrs by SRB assay; assay type: functional; how it was run: as §1
K562 = experiment: Cytotoxicity against human K562 cells after 48 hrs by SRB assay; assay type: functional; how it was run: as §1
MOLT-4 = experiment: Cytotoxicity against human MOLT4 cells after 48 hrs by SRB assay; assay type: functional; how it was run: as §2
RPMI-8226 = experiment: Cytotoxicity against human RPMI8226 cells after 48 hrs by SRB assay; assay type: functional; how it was run: as §2
SR = experiment: Cytotoxicity against human SR cells after 48 hrs by SRB assay; assay type: functional; how it was run: as §3
A549 = experiment: Cytotoxicity against human A549 cells after 48 hrs by SRB assay; assay type: functional; how it was run: as §1
[17] = Cytotoxicity against human EKVX cells after 48 hrs by SRB assay; assay type: functional; how it was run: as §1

OB(O)c1ccc(N(CCCl)CCCl)cc1
Activity [1]: 92% | Activity [2]: 83% | GI50 (HOP-62): 8.48 µM | GI50 (HOP-92): 10.5 µM | GI50 (NCI-H226): 10.3 µM | GI50 (NCI-H23): 3.36 µM | GI50 (NCI-H322M): 15.1 µM | GI50 (NCI-H460): 0.23 µM | GI50 (NCI-H522): 3.53 µM | GI50 (COLO 205): 7.26 µM | GI50 (HCC 2998): 12.1 µM | GI50 (HCT-116): 9.37 µM | GI50 [3]: 9.46 µM | GI50 (HT-29): 11.9 µM | GI50 (KM12): 15.1 µM | GI50 (SW-620): 8.39 µM | GI50 (SF-268): 4.72 µM | GI50 (SF-295): 1.36 µM | GI50 (SF-539): 3.35 µM | GI50 (SNB-19): 8 µM | GI50 (SNB-75): 3.21 µM | GI50 (U-251): 3.49 µM | GI50 (LOX IMVI): 3.13 µM | GI50 (Malme-3M): 19.7 µM | GI50 (M14): 4.77 µM | GI50 (MDA-MB-435): 13 µM | GI50 (SK-MEL-2): 19 µM | GI50 (SK-MEL-28): 13.5 µM | GI50 (SK-MEL-5): 10.9 µM | GI50 [4]: 11.6 µM | GI50 [5]: 4.71 µM | GI50 (IGROV-1): 18.1 µM | GI50 [6]: 12 µM | GI50 [7]: 12.1 µM | GI50 [8]: 16 µM | GI50 [9]: 4.2 µM | GI50 [10]: 2.69 µM | GI50 (SK-OV-3): 3.81 µM | GI50 (786-0): 4.04 µM | GI50 (A498): 3.43 µM | GI50 (ACHN): 1.75 µM | GI50 (CAKI-1): 1.44 µM | GI50 (RXF 393): 2.55 µM | GI50 (SN12C): 2.08 µM | GI50 (TK-10): 15.5 µM | GI50 [11]: 6.05 µM | GI50 (PC-3): 15.1 µM | GI50 (DU-145): 4.89 µM | GI50 (MCF7): 1.89 µM | GI50 (MDA-MB-231): 16.6 µM | GI50 [12]: 31.4 µM | GI50 (BT-549): 6.63 µM | GI50 (T47D): 6.29 µM | GI50 (MDA-MB-468): 0.51 µM | logP [13]: 2.5 | IC50 [14]: 4.8 µM | Activity [15]: Toxic | Activity [16]: Dose-dependent effect | GI50 (CCRF-CEM): 3.27 µM | GI50 (HL-60(TB)): 2.88 µM | GI50 (K562): 15.8 µM | GI50 (MOLT-4): 2.9 µM | GI50 (RPMI-8226): 8.59 µM | GI50 (SR): 0.48 µM | GI50 (A549): 0.89 µM | GI50 [17]: 15.4 µM
